Assay results reported in ChEMBL document CHEMBL5725597, “Substituted pyrrolo[3′,2′:5,6]pyrido[4,3-d]pyrimidines and JAK inhibitors comprising the same” (2017).

Amino acid sequences for entries named in this document (tags omitted). A change or cut given only in a name is not applied to a line headed by its entry.
UniProt P29597: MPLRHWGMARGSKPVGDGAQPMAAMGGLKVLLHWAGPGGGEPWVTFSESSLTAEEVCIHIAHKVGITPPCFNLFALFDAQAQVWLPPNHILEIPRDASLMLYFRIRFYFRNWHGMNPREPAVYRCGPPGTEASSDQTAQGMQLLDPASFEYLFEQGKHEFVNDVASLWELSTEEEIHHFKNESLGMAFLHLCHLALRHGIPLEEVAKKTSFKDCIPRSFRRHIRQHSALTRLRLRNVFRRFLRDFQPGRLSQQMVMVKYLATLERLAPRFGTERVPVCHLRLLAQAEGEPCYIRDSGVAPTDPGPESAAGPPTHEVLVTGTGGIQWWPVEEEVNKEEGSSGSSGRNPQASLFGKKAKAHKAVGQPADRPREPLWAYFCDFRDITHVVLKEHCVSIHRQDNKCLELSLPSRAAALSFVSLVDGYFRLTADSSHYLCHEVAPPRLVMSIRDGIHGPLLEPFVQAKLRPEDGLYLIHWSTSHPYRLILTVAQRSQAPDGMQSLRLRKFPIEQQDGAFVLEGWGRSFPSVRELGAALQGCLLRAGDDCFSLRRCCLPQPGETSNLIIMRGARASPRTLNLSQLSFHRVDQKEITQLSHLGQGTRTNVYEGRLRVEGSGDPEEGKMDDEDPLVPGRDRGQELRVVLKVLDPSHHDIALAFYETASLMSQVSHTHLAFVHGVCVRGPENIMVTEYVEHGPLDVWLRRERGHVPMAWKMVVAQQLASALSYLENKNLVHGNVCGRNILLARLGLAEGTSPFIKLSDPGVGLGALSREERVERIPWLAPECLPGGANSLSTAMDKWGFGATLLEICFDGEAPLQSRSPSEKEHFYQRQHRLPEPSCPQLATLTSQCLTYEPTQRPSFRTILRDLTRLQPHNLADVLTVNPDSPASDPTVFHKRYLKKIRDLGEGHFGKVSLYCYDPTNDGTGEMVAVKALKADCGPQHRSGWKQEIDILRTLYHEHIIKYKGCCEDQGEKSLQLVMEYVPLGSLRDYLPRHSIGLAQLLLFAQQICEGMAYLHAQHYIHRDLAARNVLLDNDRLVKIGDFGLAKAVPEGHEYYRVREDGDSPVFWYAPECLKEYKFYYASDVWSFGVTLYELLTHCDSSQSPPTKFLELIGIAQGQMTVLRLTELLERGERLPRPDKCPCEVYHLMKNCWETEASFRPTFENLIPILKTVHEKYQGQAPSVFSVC
UniProt O60674: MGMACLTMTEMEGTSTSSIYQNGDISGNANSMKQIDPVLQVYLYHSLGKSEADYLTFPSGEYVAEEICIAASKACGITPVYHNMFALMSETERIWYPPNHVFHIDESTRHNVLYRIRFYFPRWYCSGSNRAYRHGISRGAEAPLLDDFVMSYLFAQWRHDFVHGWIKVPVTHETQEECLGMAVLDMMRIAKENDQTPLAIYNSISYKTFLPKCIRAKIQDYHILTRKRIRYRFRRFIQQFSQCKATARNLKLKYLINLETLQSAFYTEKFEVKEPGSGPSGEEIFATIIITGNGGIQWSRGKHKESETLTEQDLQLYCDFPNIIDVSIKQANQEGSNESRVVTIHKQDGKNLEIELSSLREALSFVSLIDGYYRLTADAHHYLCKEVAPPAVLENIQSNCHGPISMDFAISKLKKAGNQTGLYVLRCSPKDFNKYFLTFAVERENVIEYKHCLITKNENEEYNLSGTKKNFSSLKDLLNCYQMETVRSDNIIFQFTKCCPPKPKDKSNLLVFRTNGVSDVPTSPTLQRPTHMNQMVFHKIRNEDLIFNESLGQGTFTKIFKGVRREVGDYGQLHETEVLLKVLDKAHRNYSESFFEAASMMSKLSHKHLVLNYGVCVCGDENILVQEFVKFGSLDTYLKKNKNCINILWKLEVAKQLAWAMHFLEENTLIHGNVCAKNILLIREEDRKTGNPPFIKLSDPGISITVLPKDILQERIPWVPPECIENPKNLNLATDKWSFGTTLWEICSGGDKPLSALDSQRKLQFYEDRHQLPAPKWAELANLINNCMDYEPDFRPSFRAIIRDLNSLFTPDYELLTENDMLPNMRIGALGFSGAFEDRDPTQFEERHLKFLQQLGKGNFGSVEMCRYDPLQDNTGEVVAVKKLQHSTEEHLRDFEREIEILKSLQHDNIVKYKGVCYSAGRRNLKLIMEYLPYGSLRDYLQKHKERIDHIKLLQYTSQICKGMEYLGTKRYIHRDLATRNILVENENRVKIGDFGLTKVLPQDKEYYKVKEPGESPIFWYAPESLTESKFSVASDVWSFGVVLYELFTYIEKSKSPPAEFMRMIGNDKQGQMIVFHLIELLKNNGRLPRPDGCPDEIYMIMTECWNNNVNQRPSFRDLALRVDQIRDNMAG
UniProt P23458: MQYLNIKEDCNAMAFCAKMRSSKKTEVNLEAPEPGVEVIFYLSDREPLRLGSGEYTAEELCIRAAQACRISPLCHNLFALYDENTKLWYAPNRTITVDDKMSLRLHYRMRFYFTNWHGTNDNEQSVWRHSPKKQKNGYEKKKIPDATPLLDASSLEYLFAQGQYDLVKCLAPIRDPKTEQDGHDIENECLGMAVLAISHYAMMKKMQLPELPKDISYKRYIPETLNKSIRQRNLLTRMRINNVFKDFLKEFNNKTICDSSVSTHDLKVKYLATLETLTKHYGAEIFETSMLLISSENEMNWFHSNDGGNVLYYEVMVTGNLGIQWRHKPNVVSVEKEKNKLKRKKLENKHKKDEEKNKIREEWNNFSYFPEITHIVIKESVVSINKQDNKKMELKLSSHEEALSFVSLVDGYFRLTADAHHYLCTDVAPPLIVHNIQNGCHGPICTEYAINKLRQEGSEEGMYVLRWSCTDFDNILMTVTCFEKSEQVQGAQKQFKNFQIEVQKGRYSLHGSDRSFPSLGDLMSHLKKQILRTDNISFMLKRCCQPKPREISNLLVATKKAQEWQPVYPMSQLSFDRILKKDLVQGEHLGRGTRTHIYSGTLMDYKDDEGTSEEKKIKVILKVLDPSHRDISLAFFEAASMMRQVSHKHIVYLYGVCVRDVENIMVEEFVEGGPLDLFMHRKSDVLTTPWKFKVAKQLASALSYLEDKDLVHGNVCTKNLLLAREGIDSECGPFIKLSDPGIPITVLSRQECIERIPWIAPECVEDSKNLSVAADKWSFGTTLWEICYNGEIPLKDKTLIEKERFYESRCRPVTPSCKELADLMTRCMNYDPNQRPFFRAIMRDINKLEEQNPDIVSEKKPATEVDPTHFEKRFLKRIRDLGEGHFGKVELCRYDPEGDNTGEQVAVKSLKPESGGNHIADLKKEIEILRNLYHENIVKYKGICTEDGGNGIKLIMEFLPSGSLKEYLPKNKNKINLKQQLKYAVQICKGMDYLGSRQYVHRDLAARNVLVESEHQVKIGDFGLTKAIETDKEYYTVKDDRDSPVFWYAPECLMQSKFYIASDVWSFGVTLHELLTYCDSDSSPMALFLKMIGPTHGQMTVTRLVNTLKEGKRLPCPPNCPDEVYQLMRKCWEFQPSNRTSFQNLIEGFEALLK

Tests used:
[1] = target: T1, Tyrosine-protein kinase JAK3 (Homo sapiens, UniProt P52333)
T1 sequence (P52333 whole entry): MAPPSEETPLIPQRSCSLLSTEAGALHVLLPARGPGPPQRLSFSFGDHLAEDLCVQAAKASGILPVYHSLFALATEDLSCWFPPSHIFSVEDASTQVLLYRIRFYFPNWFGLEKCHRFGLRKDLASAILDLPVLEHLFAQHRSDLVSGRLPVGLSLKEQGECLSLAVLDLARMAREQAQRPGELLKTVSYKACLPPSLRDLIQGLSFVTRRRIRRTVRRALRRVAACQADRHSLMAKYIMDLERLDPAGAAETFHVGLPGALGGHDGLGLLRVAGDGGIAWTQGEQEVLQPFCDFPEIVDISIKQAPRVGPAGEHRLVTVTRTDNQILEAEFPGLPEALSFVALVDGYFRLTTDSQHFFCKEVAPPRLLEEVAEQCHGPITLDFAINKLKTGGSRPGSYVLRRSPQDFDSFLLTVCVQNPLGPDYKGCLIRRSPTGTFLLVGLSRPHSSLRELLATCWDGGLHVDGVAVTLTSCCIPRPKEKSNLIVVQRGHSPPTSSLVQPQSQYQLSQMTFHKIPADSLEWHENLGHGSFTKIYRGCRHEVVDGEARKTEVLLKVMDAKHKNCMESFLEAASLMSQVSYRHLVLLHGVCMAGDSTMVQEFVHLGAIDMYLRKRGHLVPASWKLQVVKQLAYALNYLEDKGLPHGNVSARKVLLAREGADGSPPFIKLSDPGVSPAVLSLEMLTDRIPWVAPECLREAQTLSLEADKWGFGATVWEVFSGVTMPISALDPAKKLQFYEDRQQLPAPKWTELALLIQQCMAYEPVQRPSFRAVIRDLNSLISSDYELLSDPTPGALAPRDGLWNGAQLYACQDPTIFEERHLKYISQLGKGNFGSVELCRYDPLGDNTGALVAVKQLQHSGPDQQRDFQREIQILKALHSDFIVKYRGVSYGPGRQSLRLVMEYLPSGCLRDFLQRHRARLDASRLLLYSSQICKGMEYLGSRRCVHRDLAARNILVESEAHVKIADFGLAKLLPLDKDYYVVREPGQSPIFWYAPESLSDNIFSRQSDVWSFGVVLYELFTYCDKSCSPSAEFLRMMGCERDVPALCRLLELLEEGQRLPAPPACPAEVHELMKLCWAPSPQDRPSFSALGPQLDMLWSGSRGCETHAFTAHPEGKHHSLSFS

[2] = target: Non-receptor tyrosine-protein kinase TYK2 (Homo sapiens, UniProt P29597); experiment: Enzyme Assay: JAK1, JAK2, JAK3 and Tyk2 were purchased from Carna Biosciences, Inc. As the substrate, LANCE Ultra ULight-JAK1 Peptide (manufactured by PerkinElmer Co., Ltd. (PE)) was used. Dilute solutions of compounds and enzymes in assay buffer (50 mM HEPES pH7.5, 1 mM EGTA, 1 mM MgCl2, 2 mM DTT, 0.01% Tween20) were dispensed into wells of a 384-well black plate. After 5 minutes of …
[3] = target: Tyrosine-protein kinase JAK2 (Homo sapiens, UniProt O60674); experiment: as above
[4] = target: Tyrosine-protein kinase JAK1 (Homo sapiens, UniProt P23458)

SMILES | IC50 [1] [nM] | IC50 [2] [nM] | IC50 [3] [nM] | IC50 [4] [nM]
N#Cc1ccc(CN2CCCC(c3nnn4cnc5[nH]ccc5c34)C2)cc1 (stereo not given) | 370 |  |  | 
OC[C@H]1CC[C@H](c2nnn3cnc4[nH]ccc4c23)CC1 |  | 1600 |  | 
Fc1cccc(CN2CCC(c3nnn4cnc5[nH]ccc5c34)CC2)c1 |  |  | 20 | 
N#CCC(=O)N1CCCC(c2ncn3cnc4[nH]ccc4c23)C1 (racemic) |  |  | 100 | 30
FC(F)(F)c1ccc(CN2CCCC(c3nnn4cnc5[nH]ccc5c34)C2)cc1 (racemic) | 100 |  |  | 
c1cc2c(ncn3nnc(C4CCCN(Cc5cncs5)C4)c23)[nH]1 (racemic) | 2200 | 1500 | 1300 | 290
